Values quoted from earlier work, collected in patent US20260382504A1, “A PROCESS OF PREPARATION OF FAST DISPERSING FILM CONTAINING ASCORBIC ACID AND PRODUCT THEREOF” (published 2026).

Experiments:
[1] = accumulates in the body
[2] = test system: CYP2A6; settings: role: substrate, liver enzyme CYP2A6
[3] = test system: α4β2 receptors; settings: leading to excessive release of dopamine into nucleus accumbens and prefrontal cortex
[4] = test system: α4β2 subunit of nicotinic acetylcholine receptors (nAChRs); settings: binding to α4β2 subunit

Structure (SMILES) | detection in plasma after nicotine intake [1] | oxidized metabolite cotinine formed [2] | agonist effect [3] | Ki [4]
CN1C(=O)CC[C@H]1c1cccnc1 | can be detected in plasma after several weeks of nicotine intake |  |  | 
CN1CCCC1c1cccnc1 (stereo not shown) |  | 80% | agonist effect on α4β2 receptors | 1 nM
